Values of other authors, collected in patent US20090012326A1 (priority 2006, published 2009).

Tested on: plasma proteins, specially albumin
Conditions: cited from earlier work

Question: Which “circulating salicylate bound to plasma proteins” value does the source give for O=C([O-])c1ccccc1O.[Na+] [sodium salicylate, 2-hydroxybenzoic acid sodium salt] here?
Answer: The value was “more than 80%”.
